Measurements: patent US6693108B2, “Inhibitors of c-JUN N terminal kinases (JNK) and other protein kinases” (Vertex Pharmaceuticals Incorporated, priority 1999, dated 2004)

Protein sequences, listed by entry. Tags and fused reporters are not part of them. Residues count along the entry.
UniProt P53779, 40-402 limits assumed: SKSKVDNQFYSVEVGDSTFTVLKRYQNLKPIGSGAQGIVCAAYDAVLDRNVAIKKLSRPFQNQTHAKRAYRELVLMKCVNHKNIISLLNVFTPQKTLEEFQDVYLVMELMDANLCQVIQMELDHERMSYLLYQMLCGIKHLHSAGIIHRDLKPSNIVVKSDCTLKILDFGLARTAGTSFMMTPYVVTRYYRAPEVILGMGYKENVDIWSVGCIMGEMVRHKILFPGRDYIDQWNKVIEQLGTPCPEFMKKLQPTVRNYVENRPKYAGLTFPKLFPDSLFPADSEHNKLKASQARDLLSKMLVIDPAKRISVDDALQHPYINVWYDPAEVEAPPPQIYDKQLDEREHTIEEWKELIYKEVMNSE

Each compound was assayed against activated JNK3 (Homo sapiens, UniProt P53779) (assay: JNK3 inhibition, spectrophotometric coupled-enzyme assay). Settings: read-out: Activity in the JNK3 Inhibition Assay (Ki rating); activated JNK3 10 nM, 10 μM ATP, 30° C.; Ki from competitive inhibition model.
Format: biochemical

Cc1onc(-c2cccc(C#N)c2)c1-c1ccnc(Nc2ccc(C#N)c(F)c2)n1 and Cc1onc(-c2cccc([N+](=O)[O-])c2)c1-c1ccnc(Nc2ccc(C#N)c(F)c2)n1 fall in the same range of Ki: 0.1 to 1 µM for the first, 0.1 to 1 µM for the second.

CC(=O)c1ccc(Nc2nccc(-c3c(-c4c(F)cccc4F)noc3C)n2)cc1 and Cc1onc(-c2c(F)cccc2F)c1-c1ccnc(Nc2ccc(F)c(C#N)c2)n1 cannot be ordered by Ki: less than 0.1 µM for the first, less than 0.1 µM for the second.

Compared with CSc1ccccc1Nc1nccc(-c2c(-c3ccccc3)noc2C)n1, Cc1onc(-c2ccccc2)c1-c1ccnc(Nc2ccccc2[N+](=O)[O-])n1 is lower in Ki: 0.1 to 1 µM for the first, less than 0.1 µM for the second. The second binds more tightly here.

Cc1onc(-c2ccccc2)c1-c1ccnc(Nc2cccc([N+](=O)[O-])c2)c1 and Cc1onc(-c2ccccc2)c1-c1ccnc(Nc2cccc(N)c2)c1 cannot be ordered by Ki: less than 0.1 µM for the first, less than 0.1 µM for the second.

First: Cc1onc(-c2ccccc2)c1-c1ccnc(NCCN2CCOCC2)c1
Second: Cc1onc(-c2ccccc2)c1-c1ccnc(NCCN2CCCC2)n1
The Ki of the first is lower: 0.1 to 1 µM for the first, greater than 1 µM for the second. The first binds more tightly here.

Compared with COc1ccc(Nc2nccc(-c3c(-c4ccccc4)noc3C)n2)cc1OC, COc1ccc(OC)c(Nc2nccc(-c3c(-c4ccccc4)noc3C)n2)c1 is higher in Ki: less than 0.1 µM for the first, 0.1 to 1 µM for the second. The first binds more tightly here.

Cc1cccc(Nc2nccc(-c3c(-c4ccccc4)noc3C)n2)c1 and Cc1onc(-c2ccccc2)c1-c1ccnc(Nc2cccc(F)c2)n1 cannot be ordered by Ki: less than 0.1 µM for the first, less than 0.1 µM for the second.

First: Cc1onc(-c2cccc(C#N)c2)c1-c1ccnc(Nc2ccc(C#N)cc2)n1
Second: Cc1onc(-c2ccccc2)c1-c1ccnc(Nc2ccc(C#N)cc2)n1
The Ki of the first is higher: 0.1 to 1 µM for the first, less than 0.1 µM for the second.

Cc1cc(C)cc(Nc2nccc(-c3c(-c4ccccc4)noc3C)n2)c1 and Cc1onc(-c2ccccc2)c1-c1ccnc(Nc2cccc(Cl)c2C)n1 cannot be ordered by Ki: less than 0.1 µM for the first, less than 0.1 µM for the second.

First: Cc1onc(-c2ccccc2C(F)(F)F)c1-c1ccnc(Nc2cccc(C#N)c2)n1
Second: Cc1ccccc1-c1noc(C)c1-c1ccnc(Nc2cccc(F)c2)n1
The Ki of the first is higher: greater than 1 µM for the first, 0.1 to 1 µM for the second.

Going from Cc1ccccc1-c1noc(C)c1-c1ccnc(Nc2ccc(C#N)cc2)n1 to Cc1onc(-c2ccccc2)c1-c1ccnc(Nc2cc(C#N)ccc2F)n1, the Ki falls from greater than 1 µM to less than 0.1 µM. The second binds more tightly here.

COCC(C)Nc1nccc(-c2c(-c3ccccc3)noc2C)n1 (centres unmarked) and Cc1onc(-c2ccccc2)c1-c1ccnc(NC(C)CO)n1 (centres unmarked) cannot be ordered by Ki: less than 0.1 µM for the first, less than 0.1 µM for the second.

Cc1onc(-c2cccc([N+](=O)[O-])c2)c1-c1ccnc(Nc2cccc(C#N)c2)n1 and Cc1onc(-c2ccc3c(c2)OCO3)c1-c1ccnc(Nc2cccc(C#N)c2)n1 fall in the same range of Ki: 0.1 to 1 µM for the first, 0.1 to 1 µM for the second.

COc1ccc(C#N)cc1Nc1nccc(-c2c(-c3ccccc3)noc2C)n1 and Cc1onc(-c2ccccc2)c1-c1ccnc(Nc2ccc(C#N)c(F)c2)n1 cannot be ordered by Ki: less than 0.1 µM for the first, less than 0.1 µM for the second.

Cc1onc(-c2ccccc2)c1-c1ccnc(NCCN(C)C)n1 and CCN1CCCC1CNc1nccc(-c2c(-c3ccccc3)noc2C)n1 (centres unmarked) cannot be ordered by Ki: greater than 1 µM for the first, greater than 1 µM for the second.

COC(=O)c1cccc(Nc2cc(-c3c(-c4ccccc4)noc3C)ccn2)c1 and COc1cccc(Nc2cc(-c3c(-c4ccccc4)noc3C)ccn2)c1 cannot be ordered by Ki: less than 0.1 µM for the first, less than 0.1 µM for the second.

Compared with Cc1onc(-c2cccc(OCc3ccccc3)c2)c1-c1ccnc(Nc2cccc(C#N)c2)n1, Cc1onc(-c2ccccc2)c1-c1ccnc(Nc2ccc(C#N)cc2)c1 is lower in Ki: 0.1 to 1 µM for the first, less than 0.1 µM for the second.

Compared with CCOC(=O)CC(C)Nc1nccc(-c2c(-c3ccccc3)noc2C)n1 (centres unmarked), Cc1onc(-c2ccccc2)c1-c1ccnc(Nc2ccccc2C(F)(F)F)n1 is higher in Ki: less than 0.1 µM for the first, 0.1 to 1 µM for the second.

Compared with Cc1onc(-c2ccc3c(c2)OCO3)c1-c1ccnc(Nc2ccc(C#N)c(F)c2)n1, CC(=O)Nc1cccc(Nc2cc(-c3c(-c4ccccc4)noc3C)ccn2)c1 is lower in Ki: 0.1 to 1 µM for the first, less than 0.1 µM for the second. The second binds more tightly here.
